# Measurements published in the supplement of paper PMC11403291.
# Sequences of proteins named here, by UniProt entry; tags and fusion partners are left off. A change or cut given only in a name is not applied to a line headed by its entry.
# UniProt Q13233: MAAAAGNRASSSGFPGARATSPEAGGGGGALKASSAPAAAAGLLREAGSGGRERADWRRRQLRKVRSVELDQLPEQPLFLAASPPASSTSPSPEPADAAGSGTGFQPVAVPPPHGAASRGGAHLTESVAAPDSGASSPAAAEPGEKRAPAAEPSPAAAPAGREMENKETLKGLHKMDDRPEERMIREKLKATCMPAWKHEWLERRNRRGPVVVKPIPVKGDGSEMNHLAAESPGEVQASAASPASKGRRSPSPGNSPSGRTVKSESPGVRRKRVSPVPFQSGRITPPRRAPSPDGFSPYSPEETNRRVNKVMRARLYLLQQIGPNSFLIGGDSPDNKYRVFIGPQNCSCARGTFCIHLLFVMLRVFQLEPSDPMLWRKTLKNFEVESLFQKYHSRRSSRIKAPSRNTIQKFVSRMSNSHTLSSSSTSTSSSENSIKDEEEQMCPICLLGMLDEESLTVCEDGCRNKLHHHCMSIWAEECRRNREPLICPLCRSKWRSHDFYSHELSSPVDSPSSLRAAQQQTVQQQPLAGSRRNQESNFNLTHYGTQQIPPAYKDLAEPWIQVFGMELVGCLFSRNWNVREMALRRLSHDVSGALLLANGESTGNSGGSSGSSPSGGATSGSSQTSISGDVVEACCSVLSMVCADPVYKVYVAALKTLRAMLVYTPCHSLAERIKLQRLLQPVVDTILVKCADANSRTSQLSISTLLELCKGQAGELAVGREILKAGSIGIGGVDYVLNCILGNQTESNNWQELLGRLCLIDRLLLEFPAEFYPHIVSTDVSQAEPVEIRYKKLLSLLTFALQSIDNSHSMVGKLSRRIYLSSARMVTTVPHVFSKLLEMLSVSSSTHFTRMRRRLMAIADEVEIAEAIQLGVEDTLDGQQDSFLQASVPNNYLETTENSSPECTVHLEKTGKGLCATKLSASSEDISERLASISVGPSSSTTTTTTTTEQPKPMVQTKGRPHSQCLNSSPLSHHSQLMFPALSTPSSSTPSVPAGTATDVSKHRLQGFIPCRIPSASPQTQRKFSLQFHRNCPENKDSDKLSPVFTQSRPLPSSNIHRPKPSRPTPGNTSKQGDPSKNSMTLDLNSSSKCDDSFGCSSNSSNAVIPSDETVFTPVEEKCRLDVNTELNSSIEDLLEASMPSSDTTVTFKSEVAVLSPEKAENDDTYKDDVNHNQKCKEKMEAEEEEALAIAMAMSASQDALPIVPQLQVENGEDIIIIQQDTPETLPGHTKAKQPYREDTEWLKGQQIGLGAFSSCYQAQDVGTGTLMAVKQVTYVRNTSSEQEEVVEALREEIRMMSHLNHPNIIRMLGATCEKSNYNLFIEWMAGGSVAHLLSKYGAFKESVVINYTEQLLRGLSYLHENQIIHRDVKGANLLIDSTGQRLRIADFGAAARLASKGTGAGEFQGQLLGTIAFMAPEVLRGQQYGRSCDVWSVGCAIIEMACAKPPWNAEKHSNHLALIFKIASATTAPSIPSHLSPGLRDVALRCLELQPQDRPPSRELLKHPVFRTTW
# UniProt P49674: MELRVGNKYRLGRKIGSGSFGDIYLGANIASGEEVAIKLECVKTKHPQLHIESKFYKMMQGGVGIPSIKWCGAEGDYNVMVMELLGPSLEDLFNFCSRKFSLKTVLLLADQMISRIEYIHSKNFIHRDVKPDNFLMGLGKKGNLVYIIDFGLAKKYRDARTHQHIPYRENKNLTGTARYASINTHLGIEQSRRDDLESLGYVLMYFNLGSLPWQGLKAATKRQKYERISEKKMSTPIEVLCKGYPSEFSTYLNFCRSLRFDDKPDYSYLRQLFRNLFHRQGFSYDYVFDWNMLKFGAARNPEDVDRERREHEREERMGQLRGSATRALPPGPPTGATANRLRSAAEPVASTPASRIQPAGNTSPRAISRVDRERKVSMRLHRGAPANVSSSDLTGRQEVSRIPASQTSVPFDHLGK
# UniProt O43353, whole entry: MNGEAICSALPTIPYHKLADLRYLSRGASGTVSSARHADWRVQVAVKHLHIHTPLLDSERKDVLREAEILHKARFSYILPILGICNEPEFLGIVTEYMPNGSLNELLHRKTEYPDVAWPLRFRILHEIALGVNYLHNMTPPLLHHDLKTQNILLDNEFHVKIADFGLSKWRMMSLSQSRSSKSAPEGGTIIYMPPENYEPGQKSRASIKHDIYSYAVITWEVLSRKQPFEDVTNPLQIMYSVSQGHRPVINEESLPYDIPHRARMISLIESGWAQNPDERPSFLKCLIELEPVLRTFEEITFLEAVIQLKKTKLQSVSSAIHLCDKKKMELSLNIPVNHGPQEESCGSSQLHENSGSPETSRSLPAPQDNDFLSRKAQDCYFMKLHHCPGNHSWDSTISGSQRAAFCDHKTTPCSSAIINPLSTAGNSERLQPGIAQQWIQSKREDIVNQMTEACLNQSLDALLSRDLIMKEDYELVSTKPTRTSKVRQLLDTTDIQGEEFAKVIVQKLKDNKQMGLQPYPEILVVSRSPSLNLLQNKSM
# UniProt P22455, whole entry, looked up: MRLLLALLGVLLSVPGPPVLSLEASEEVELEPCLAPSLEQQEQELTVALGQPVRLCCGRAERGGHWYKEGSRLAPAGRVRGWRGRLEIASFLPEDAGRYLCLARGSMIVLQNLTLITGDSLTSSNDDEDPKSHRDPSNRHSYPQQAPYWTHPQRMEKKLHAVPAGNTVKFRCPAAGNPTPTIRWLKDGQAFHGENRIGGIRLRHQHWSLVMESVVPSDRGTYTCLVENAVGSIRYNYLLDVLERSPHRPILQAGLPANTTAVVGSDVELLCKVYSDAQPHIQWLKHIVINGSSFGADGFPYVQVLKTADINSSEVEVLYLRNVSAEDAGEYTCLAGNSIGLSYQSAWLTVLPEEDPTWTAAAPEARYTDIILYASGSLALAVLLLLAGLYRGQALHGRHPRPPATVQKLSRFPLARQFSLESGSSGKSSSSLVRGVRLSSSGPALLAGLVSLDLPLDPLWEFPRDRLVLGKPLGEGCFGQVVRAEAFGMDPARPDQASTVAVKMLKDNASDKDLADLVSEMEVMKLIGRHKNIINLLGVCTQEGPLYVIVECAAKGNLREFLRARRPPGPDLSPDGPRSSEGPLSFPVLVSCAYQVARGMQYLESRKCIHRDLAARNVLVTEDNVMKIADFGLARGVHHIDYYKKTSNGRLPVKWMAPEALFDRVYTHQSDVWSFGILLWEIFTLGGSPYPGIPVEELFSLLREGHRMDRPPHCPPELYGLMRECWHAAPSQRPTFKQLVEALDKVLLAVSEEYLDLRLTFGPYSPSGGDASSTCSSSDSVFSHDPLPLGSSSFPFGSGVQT
# Tests used:
# Assay in all cases: apparent dissociation constant pKd app (kinobead competition) (-log10(M)); higher = stronger binding
# MAP3K1 = MAP3K1 (UniProt Q13233)
# CSNK1E = CSNK1E (UniProt P49674)
# MERTK = biological target: T1, MERTK (UniProt Q12866)
# T1 sequence (whole entry): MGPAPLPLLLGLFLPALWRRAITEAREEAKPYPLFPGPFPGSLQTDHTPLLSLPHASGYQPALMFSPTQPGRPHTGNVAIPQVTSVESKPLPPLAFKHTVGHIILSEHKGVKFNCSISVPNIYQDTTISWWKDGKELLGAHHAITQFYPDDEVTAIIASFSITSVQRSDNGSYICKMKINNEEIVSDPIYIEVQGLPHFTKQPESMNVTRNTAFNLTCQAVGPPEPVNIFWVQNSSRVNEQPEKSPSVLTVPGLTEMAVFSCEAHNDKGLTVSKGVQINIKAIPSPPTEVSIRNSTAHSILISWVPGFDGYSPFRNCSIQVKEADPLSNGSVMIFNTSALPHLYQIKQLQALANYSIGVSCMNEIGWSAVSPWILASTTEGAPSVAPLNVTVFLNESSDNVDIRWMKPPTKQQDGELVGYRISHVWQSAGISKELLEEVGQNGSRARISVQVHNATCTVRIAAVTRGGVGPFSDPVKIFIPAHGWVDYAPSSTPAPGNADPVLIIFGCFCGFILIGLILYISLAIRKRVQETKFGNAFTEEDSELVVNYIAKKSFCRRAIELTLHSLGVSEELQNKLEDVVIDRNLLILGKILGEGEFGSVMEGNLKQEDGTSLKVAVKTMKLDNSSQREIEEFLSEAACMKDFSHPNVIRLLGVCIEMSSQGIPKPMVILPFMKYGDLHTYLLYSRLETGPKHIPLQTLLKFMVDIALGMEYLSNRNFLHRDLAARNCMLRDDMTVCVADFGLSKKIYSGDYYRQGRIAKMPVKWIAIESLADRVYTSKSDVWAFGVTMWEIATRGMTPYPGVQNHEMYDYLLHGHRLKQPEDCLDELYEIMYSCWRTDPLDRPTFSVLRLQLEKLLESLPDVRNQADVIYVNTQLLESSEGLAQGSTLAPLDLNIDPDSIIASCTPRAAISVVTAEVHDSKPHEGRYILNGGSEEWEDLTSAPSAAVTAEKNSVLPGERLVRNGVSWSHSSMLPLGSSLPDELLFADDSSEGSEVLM
# RIPK2 = RIPK2 (UniProt O43353)
# SGK3 = biological target: T2, SGK3 (UniProt Q96BR1)
# T2 sequence (whole entry): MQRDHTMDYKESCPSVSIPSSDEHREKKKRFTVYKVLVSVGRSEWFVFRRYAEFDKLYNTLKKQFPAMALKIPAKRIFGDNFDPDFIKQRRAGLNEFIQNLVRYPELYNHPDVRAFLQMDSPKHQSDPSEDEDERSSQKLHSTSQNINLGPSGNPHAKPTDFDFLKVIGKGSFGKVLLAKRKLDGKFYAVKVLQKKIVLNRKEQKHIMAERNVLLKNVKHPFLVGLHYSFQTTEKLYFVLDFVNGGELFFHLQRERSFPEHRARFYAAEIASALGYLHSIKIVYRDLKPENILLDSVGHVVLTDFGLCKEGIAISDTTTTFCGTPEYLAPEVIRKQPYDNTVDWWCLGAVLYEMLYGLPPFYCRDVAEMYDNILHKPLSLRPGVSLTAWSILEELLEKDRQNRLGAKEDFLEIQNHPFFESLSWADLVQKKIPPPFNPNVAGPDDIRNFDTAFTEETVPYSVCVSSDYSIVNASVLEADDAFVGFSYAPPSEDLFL
# FGFR4 = FGFR4 (UniProt P22455)
# NLK = biological target: T3, NLK (UniProt Q9UBE8)
# T3 sequence (whole entry): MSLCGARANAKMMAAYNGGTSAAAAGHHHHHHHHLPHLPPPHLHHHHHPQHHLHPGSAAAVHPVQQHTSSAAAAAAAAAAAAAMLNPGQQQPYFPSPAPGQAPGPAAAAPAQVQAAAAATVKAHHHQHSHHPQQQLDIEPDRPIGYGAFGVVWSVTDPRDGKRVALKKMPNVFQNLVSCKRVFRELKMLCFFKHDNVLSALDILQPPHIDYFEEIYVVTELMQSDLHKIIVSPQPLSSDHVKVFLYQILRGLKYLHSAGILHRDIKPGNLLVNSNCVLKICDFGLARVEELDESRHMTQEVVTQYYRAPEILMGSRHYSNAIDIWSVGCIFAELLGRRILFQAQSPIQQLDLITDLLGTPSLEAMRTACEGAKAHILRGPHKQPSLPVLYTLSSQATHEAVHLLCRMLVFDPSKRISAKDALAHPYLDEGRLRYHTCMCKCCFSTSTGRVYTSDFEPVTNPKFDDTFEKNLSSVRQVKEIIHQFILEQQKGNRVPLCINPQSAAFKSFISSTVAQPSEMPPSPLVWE
# MAP3K2 = biological target: T4, MAP3K2 (UniProt Q9Y2U5)
# T4 sequence (whole entry): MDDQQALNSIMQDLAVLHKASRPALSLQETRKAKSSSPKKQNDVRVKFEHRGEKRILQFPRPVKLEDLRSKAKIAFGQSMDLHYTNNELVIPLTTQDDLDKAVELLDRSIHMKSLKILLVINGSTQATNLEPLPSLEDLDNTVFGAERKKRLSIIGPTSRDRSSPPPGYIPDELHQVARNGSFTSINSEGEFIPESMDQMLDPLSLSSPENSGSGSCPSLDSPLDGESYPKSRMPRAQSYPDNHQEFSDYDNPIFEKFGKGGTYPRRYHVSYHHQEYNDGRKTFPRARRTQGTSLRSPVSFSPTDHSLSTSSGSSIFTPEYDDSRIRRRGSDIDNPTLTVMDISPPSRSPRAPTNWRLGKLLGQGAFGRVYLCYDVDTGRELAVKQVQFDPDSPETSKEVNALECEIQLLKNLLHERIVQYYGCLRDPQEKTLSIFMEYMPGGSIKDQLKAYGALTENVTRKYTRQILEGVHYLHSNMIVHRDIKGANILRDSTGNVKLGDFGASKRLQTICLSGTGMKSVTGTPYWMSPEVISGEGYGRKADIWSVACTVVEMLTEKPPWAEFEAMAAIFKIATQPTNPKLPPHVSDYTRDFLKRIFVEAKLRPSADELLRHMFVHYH
apparent dissociation constant pKd app (-log10) (MAP3K1),apparent dissociation constant pKd app (-log10) (CSNK1E),apparent dissociation constant pKd app (-log10) (MERTK),apparent dissociation constant pKd app (-log10) (RIPK2),apparent dissociation constant pKd app (-log10) (SGK3),apparent dissociation constant pKd app (-log10) (FGFR4),apparent dissociation constant pKd app (-log10) (NLK),apparent dissociation constant pKd app (-log10) (MAP3K2),Compound
< 4.7,< 4.5,< 4.6,< 4.8,< 4.5,< 4.5,< 4.6,< 4.6,O=C(c1cc(Cc2n[nH]c(=O)c3ccccc23)ccc1F)N1CCN(C(=O)C2CC2)CC1 [Olaparib]
< 4.7,< 4.5,< 4.6,< 4.8,< 4.5,< 4.5,< 4.6,< 4.6,NC(=O)c1cccc2cn(-c3ccc([C@@H]4CCCNC4)cc3)nc12 [Niraparib]
< 4.7,< 4.5,< 4.6,< 4.8,< 4.5,< 4.5,< 4.6,< 4.6,Cn1ncnc1[C@H]1c2n[nH]c(=O)c3cc(F)cc(c23)N[C@@H]1c1ccc(F)cc1 [Talazoparib]
